Here are results for one compound from ChEMBL document CHEMBL1128565, “Aspartyl alpha-((diphenylphosphinyl)oxy)methyl ketones as novel inhibitors of interleukin-1 beta converting enzyme. Utility of the diphenylphosphinic acid leaving group for the inhibition of cysteine proteases” (J Med Chem, 1995).

The target in this test is T1, Caspase-1 (Homo sapiens) (UniProt P29466).
T1 sequence (whole entry): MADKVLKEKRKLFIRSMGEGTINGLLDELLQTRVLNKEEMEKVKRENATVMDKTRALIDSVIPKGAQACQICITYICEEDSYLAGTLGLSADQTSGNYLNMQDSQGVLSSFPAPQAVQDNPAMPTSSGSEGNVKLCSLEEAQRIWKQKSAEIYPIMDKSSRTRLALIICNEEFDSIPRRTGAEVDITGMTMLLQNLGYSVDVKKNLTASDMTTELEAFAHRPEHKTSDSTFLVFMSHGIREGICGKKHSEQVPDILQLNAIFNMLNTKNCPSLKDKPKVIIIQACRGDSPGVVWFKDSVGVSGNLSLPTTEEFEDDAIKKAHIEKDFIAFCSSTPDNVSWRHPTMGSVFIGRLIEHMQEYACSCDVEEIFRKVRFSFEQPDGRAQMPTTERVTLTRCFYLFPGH
The experiment in a line: Inhibition of interleukin-1-beta converting enzyme at pH 7.4, 37 degree C.

Turning to `CC(C)[C@H](NC(=O)OCc1ccccc1)C(=O)N[C@@H](C)C(=O)N[C@@H](CC(=O)O)C(=O)COP(=O)(c1ccccc1)c1ccccc1`, the K obs / 1 was determined as 117000 M⁻¹ s⁻¹.
